Measured values reported in patent publication US20250082634A1, “PIM KINASE INHIBITORS FOR TREATMENT OF MYELOPROLIFERATIVE NEOPLASMS AND FIBROSIS ASSOCIATED WITH CANCER” (Sumitomo Pharma America, Inc., priority 2018, published 2025).

Chains of the proteins cited; added tags and fusions are not shown.
UniProt Q9P1W9, whole entry, species assumed: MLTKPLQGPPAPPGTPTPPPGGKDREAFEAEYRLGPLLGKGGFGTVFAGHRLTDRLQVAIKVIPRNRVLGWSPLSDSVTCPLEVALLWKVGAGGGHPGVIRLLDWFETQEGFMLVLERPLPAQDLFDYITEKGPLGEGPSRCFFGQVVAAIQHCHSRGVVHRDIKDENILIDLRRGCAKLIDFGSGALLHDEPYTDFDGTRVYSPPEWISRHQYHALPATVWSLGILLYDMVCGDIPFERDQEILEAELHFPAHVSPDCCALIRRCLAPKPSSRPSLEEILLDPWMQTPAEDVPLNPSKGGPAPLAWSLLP

Target: PIM 2 (Homo sapiens, UniProt Q9P1W9)
Assay: PIM kinase biochemical profile (Ki)

Question: Which Ki does the source give for CN1CCC(CNc2ccc3ncc(-c4cccc(OC(F)(F)F)c4)n3n2)CC1 [Compound A, reference compound] here?
Answer: The Ki was 980 nM.
